The target in the test is Mu-type opioid receptor (Homo sapiens) (UniProt P35372). In words: mu opioid receptor activation potency – cell-based, luminescence, dose response, powder samples, counter-screen for mouse HTR2A agonist project, late-stage follow-up (AID 720642). The following applies: U2OS OPRM1 beta-arrestin complementation. (The purpose of a counterscreen is to sort out artefacts and off-target activity.)

The chains behind the UniProt entries cited, without tags or fusion partners.
UniProt P35372, whole entry, looked up: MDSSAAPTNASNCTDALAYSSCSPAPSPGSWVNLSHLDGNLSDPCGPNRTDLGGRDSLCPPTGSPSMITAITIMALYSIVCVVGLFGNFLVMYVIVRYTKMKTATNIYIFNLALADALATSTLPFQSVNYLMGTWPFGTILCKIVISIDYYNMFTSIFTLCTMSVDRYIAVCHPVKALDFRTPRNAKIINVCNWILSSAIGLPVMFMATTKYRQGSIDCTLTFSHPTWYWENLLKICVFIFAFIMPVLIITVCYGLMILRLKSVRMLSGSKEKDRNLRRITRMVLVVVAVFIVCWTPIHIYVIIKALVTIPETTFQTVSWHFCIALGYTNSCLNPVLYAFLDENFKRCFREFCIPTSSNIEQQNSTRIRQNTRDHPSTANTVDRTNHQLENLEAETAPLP

Molecules are shown by their SMILES. Active and inactive are the calls of the source.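 How the source made its calls: active means EC50 activation potency at or below 10 µM in this mu opioid counterscreen; inactive means EC50 above 10 µM or never reaching half activation.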 Some results are limits rather than exact numbers.

Consider `COC(=O)C1=C(Cn2cnc3ccccc32)NC(=O)NC1c1cc(C)ccc1C` (stereo unspecified), for which the EC50 was inactive: > 92.5 µM.

Broadly, the EC50 is the concentration giving half of the maximal effect.
